# Measured values: patent publication US6716986B2, “Sulfuric acid mono-[3-({1-[2-(4-fluoro-phenyl)-ethyl]-piperidin-4-YL}-hydroxy-methyl)-2-methoxy-phenyl]ester” (Aventis Pharmaceuticals Inc., priority 1999, dated 2004)
# Chains of the proteins cited; added tags and fusions are not shown. Residues count along the entry.
# UniProt P28335, 33-458: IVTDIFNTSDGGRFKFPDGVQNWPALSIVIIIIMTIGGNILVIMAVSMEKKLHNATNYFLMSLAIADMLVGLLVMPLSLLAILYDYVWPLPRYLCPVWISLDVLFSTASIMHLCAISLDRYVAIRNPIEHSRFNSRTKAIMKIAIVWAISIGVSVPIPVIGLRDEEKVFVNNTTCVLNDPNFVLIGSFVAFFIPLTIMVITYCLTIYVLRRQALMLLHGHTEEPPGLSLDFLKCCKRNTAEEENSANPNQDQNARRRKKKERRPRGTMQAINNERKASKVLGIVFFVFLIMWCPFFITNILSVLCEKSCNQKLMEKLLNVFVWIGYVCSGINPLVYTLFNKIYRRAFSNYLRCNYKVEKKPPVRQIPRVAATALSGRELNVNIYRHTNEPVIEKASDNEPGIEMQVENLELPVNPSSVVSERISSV
# Biological target: T1, human 5-HT2c (Homo sapiens, UniProt P28335)
# T1 construct: expressed in transfected cells
# Assay: In vitro inhibition of [3H]-ligand binding to human 5-HT2C receptor
# Details: CHO, saturation (Scatchard) and kinetic analysis
# Protocol: Cells stably expressing the human homologs of the receptors (dopamine D2L, serotonin 5HT2A and 5HT2C, α1A adrenergic; cloned and expressed at Hoechst Marion Roussel; Grandy et al., 1989; Monsma et al., 1993; Schwinn et al., 1995) were grown; cell membranes were prepared, and kept frozen until used (Kongsamut et al., 1996). The relevance of these binding sites has been extensively discussed in the literature (see for example: Carlsson & Carlsson, 1990; Creese et al., 1976; Gorman & Vargas, 1995; Meltzer et al., 1989). All binding parameters were optimized at Hoechst Marion Roussel; ligand Kds were determined using both saturation analysis (Scatchard) as well as kinetic analysis (association and dissociation rates). Each batch of membrane was validated by checking the ligand Kd, and rank order of potency of selected standard compounds. […]
# Membranes were rapidly thawed and diluted to an appropriate concentration (between 20-150 μg protein/assay point depending on receptor expression level) in Tris buffer and homogenized. […] Microscint scintillation cocktail (40 μl) were added and the filter plates were counted in a Packard Top Count scintillation counter. Data were analyzed to determine Ki's for compounds of interest (Prusoff & Cheng, […]).Table: Receptor Binding Parameters.
compound,measurement,value
"CN1C[C@@H](NS(=O)(=O)N(C)C)C[C@@H]2c3cccc4c3c(cn4C)C[C@H]21 [[^3H]mesulergine, reference compound]",Kd,1.9 nM
